By UniProt entry, the sequences of proteins in these tests, tags left out.
UniProt P31424, whole entry: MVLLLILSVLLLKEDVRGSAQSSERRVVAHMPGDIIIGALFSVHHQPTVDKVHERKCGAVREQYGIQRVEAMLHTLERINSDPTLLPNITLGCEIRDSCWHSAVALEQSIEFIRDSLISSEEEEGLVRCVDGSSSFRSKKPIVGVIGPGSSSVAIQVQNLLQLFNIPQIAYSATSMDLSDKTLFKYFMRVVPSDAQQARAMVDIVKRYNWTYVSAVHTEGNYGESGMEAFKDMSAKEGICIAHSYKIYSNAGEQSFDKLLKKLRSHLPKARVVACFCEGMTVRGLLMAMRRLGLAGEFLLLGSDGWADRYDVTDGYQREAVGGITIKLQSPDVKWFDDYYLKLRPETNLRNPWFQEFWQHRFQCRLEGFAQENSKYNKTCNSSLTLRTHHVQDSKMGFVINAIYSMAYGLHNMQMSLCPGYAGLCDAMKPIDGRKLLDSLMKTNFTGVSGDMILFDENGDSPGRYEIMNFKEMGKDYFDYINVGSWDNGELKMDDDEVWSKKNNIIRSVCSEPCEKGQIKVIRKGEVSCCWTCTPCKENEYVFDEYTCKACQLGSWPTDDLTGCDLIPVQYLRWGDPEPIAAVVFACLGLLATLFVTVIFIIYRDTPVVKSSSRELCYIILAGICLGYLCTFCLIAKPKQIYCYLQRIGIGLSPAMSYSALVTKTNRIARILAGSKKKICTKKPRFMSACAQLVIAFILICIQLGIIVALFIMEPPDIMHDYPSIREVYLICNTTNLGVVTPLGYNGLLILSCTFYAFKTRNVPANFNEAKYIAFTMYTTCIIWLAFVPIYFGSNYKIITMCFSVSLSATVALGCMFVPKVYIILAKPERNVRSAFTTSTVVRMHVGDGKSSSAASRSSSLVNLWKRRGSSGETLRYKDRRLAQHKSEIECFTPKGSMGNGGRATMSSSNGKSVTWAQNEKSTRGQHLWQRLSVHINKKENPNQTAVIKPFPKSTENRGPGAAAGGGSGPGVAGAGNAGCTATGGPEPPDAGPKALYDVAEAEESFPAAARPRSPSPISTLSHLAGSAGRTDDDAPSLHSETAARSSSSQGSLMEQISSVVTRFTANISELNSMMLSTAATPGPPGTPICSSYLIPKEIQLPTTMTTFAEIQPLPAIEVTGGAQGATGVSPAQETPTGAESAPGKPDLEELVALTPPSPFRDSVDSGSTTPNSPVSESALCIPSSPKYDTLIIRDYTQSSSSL

In ChEMBL document CHEMBL1138071, “Design and synthesis of noncompetitive metabotropic glutamate receptor subtype 5 antagonists” (Bioorg Med Chem Lett, 2006):

Target: Metabotropic glutamate receptor 5 (Rattus norvegicus, UniProt P31424)
Assay: Inhibition of [3H]MPEP binding to mGluR5 in rat brain membrane
Format: cell membranes
Outline: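 Rat brain membranes spun twice at 30,000g for 10 min, resuspended in ice-cold 50 mM Tris–HCl pH 7.0 with 1% BSA. Binding sites labeled with 1 nM [3H]MPEP in leupeptin/chymostatin/bestatin protease inhibitor cocktail, with NaCl added. Displacement by 10 drug concentrations run three times. Incubated 2.5 h at 4 °C to steady state, then filtered over PEI-presoaked glass-fibre filters.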

- IC50: 0.013 µM
Compound: Cc1cccc(C#Cc2ccccc2)n1
